Test results: US20240325303A1, “KETOROLAC LIQUID COMPOSITION, PREPARATION METHOD THEREFOR, AND APPLICATION THEREOF” (SHANGHAI AURORA BIOTECHNOLOGY CO., LTD., priority 2021, published 2024)

System: guinea pigs
Assay: Active systemic anaphylaxis assay in guinea pigs
Settings: 40 mg/kg i.m. / 80 mg/kg i.v., 9 animals

Positive control: Positive control group (human serum albumin) of the anaphylaxis assay
animals died after challenge: 5
